Assay results from patent US20240360139A1, “BLOOD BRAIN BARRIER PENETRATING SELECTIVE INHIBITORS OF ROCK2 PROTEIN KINASES AND USES THEREOF” (GENOSCO Inc., priority 2023, published 2024).

Amino acid sequences for entries named in this document (tags omitted). Residues count along the entry.
UniProt Q13464, 1-477 limits assumed: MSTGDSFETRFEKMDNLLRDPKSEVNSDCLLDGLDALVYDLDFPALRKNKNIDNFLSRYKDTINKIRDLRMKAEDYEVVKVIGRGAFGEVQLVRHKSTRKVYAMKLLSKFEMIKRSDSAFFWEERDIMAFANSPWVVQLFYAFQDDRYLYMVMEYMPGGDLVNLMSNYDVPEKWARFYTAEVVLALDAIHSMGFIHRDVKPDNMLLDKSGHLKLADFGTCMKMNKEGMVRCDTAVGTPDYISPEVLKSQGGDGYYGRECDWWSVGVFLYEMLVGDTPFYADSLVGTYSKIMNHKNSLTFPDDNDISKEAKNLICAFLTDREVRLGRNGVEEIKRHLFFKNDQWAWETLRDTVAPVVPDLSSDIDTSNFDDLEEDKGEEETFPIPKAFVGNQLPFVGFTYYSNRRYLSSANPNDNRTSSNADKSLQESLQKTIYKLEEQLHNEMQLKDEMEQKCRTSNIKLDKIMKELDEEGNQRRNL
UniProt O75116, 5-554 limits assumed: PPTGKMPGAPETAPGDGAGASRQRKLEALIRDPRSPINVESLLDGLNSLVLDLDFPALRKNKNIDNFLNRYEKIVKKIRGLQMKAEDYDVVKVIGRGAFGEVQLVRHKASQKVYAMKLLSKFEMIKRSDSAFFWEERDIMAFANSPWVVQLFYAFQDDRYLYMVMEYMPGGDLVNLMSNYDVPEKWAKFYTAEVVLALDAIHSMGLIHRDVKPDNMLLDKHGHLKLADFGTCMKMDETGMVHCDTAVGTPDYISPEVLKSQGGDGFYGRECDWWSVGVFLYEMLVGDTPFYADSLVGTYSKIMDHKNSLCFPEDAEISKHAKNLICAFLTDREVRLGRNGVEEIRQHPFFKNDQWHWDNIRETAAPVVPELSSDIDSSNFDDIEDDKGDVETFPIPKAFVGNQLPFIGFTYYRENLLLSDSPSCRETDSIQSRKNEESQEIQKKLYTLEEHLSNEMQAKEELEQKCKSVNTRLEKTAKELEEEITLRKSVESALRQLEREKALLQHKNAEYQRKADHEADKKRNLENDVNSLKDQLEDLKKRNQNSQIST

What was measured:
[1] = biological target: Recombinant ROCK1 (amino acids 1-477) (Homo sapiens, UniProt Q13464); assay: ROCK inhibition assay, LANCE Ultra TR-FRET (ROCK1); settings: read-out: Inhibition Activity of ROCK1 (IC50); 1 mM of ATP
Experimental: (§1) Kinase IC50 was determined through an in vitro assay based on LANCE Ultra TR-FRET (Time-Resolved Fluorescence Resonance Energy Transfer) homogeneous technologies method 5 (Perkin Elmer). Recombinant ROCK1 (amino acids 1-477) and ROCK2 (amino acids 5-554) proteins were purchased from Carna Biosciences and SignalChem. Compound activities were measured by Envision and IC50s were calculated. The assays were performed in white LUMITRAC™ 200 96 well half-area microplates from Greiner Bio-One. The kinase reaction buffer consisted of 50 mM HEPES pH 7.5, 1 mM EGTA, 10 mM MgCl2, 2 mM DTT and 0.01% 10 Tween-20. Kinases were incubated with 50 nM (ULight-CREBtide) substrate in the presence of 1 mM (ROCK1) or 1 mM (ROCK2) of ATP. The kinase reaction was carried out for 1 hour before addition of a stopping buffer to a final of 10 mM EDTA and 0.6 nM of LANCE Ultra Europium anti-phospho-CREB (Ser133) antibody (PerkinElmer TRF0200) in LANCE detection buffer. All assay incubations were performed at room temperature, and the microplates were sealed with polyester film during that time. The reaction was incubated for 1 hour, and the signal was read in Envision in TR-FRET mode (excitation at 320 nm and emission at 615/665 nm).
(§2) As used herein, a way to describe potency of inhibitory activity (nM) is a value of inhibitory activity at 50% (IC50). […]

[2] = biological target: Recombinant ROCK2 (amino acids 5-554) (Homo sapiens, UniProt O75116); assay: ROCK inhibition assay, LANCE Ultra TR-FRET (ROCK2); settings: read-out: Inhibition Activity of ROCK2 (IC50); 1 mM of ATP
Experimental: as §1, §2

Question: For CC[C@@H](N)Cn1cc(C(=O)C2COc3ccc(Cl)cc3C2)c2ccc(-c3cn[nH]c3OC)cc21 (some centres unmarked), which IC50 [1] is on record?
Answer: The IC50 was 21 to 200 nM.

Question: And the IC50 [2]?
Answer: The IC50 was under 20 nM.
